The chains behind the UniProt entries cited, without tags or fusion partners.
UniProt Q07820, whole entry: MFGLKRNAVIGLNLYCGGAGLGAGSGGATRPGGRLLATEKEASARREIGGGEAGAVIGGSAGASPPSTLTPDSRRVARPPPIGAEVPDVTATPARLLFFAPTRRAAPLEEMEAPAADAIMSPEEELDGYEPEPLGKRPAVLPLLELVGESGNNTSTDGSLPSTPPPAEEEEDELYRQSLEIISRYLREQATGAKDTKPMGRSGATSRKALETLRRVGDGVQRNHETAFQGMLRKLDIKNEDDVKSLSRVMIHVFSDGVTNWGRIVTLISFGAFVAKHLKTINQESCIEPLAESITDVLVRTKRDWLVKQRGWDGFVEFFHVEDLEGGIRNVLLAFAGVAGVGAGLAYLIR

In patent US20250313572A1, “MACROCYCLIC MCL-1 INHIBITORS AND METHODS OF USE” (AbbVie Inc., priority 2017, published 2025):

How the values were obtained:
[1] = target: GST-MCL-1 (Homo sapiens, UniProt Q07820); assay: TR-FRET MCL-1 binding assay (competition with probe F-Bak)
Procedure: Tb-anti-GST antibody was purchased from Invitrogen (Catalog No. PV4216).
For the assay, an acoustic dispenser was used to prepare dilution series from 10 mM test compounds in 100% DMSO and directly transfer 160 nL into low volume 384-well assay plates. 8 μL of a protein/probe/antibody mix was then added to each well resulting in final concentrations listed below: • Test compound: 11 three-fold dilutions beginning at 25 μM
The samples were then mixed on a shaker for 1 minute and incubated for an additional 2 hours at room temperature. For each assay plate, a probe/antibody and protein/antibody/probe mixture were included as a negative and a positive control, respectively. Fluorescence was measured on the Envision (Perkin Elmer) using a 340/35 nm excitation filter and 520/525 (F-Bak) and 495/510 nm (Tb-labeled anti-his antibody) emission filters. Dissociation constants (Ki) were determined using Wang's equation (Wang, 1995, FEBS Lett. 360:111-114). The TR-FRET assay can be performed in the presence of varying concentrations of human serum (HS) or fetal bovine serum (FBS). Compounds were tested both without HS and in the presence of 10% HS.

[2] = system: AMO-1 human multiple myeloma tumor cell line; assay: AMO-1 cell viability assay (CellTiter-Glo, 24 hours); assay type: cell-based
Source text: (§1) The in vitro efficacy of exemplary MCL-1 inhibitors can be determined in cell-based killing assays using a variety of cell lines and mouse tumor models. For example, their activity on cell viability can be assessed on a panel of cultured tumorigenic and non-tumorigenic cell lines, as well as primary mouse or human cell populations. MCL-1 inhibitory activity of exemplary MCL-1 inhibitors was confirmed in a cell viability assay with AMO-1 and NCI-H929 human multiple myeloma tumor cell lines.
(§2) In one exemplary set of conditions, NCI-H929 or AMO-1 (ATCC, Manassas, VA) were plated 4,000 cells per well in 384-well tissue culture plates (Corning, Corning, NY) in a total volume of 25 μL RPMI tissue culture medium supplemented with 10% fetal bovine serum (Sigma-Aldrich, St. Louis, MO) and treated with a 3-fold serial dilution of the compounds of interest with a Labcyte Echo from a final concentration of 10 µM to 0.0005 μM. Each concentration was tested in duplicate at least 3 independent times. A luminescent signal proportional to the number of viable cells following 24 hours of compound treatment was determined using the CellTiter-Glo® Luminescent Cell Viability Assay according to the manufacturer's recommendations (Promega Corp., Madison, WI). The plates were read in a Perkin Elmer Envision using a Luminescence protocol. […]

[3] = system: NCI-H929 human multiple myeloma tumor cell line; assay: NCI-H929 cell viability assay (CellTiter-Glo, 24 hours)
Source text: as §1, §2

SMILES	Ki ([1]; read-out: MCL-1 Binding Ki (nM, 10% HS), in the presence of 10% HS (human serum)) [nM]	Ki ([1]; read-out: MCL-1 Binding Ki, without HS) [nM]	IC50 ([2]; read-out: AMO-1 Viability IC50 (μM, 10% FBS), 24 hours of compound treatment) [µM]	IC50 ([3]; read-out: H929 Viability IC50 (μM, 10% FBS), 24 hours of compound treatment) [µM]	IC50 ([2]; read-out: AMO-1 Viability IC50 (μM, 10% FBS), 24 hours of compound treatment, tested form: TFA) [µM]	IC50 ([3]; read-out: H929 Viability IC50 (μM, 10% FBS), 24 hours of compound treatment, tested form: TFA) [µM]
COCCOCCOCCOC[C@]1(F)CC[C@H](c2nccc(COc3ccc4cc3C[C@H](C(=O)O)Oc3ncnc5sc(-c6ccc(F)cc6)c(c35)-c3c(C)c(Cl)c(c(Cl)c3C)O[C@H](CN3CCN(C)CC3)CO4)n2)CC1	0.071	0.011	0.000192	0.000198	–	–
Cc1c(Cl)c2c(Cl)c(C)c1-c1c(-c3ccc(F)cc3)sc3ncnc(c13)O[C@@H](C(=O)O)Cc1cc(ccc1OCc1ccnc(C3(COCCOC[C@H]4COCCO4)CCCC3)n1)OC[C@@H](CN1CCN(C)CC1)O2	–	–	–	–	0.000161	0.000687

Where two headings read alike, the source gives them in different places.
